In general, inhibition refers to the drop in the measured response relative to a control, in per cent.

The chains behind the UniProt entries cited, without tags or fusion partners. Where a name states a change or a piece, a line headed by the entry shows the natural chain unless it says otherwise.
UniProt P31941: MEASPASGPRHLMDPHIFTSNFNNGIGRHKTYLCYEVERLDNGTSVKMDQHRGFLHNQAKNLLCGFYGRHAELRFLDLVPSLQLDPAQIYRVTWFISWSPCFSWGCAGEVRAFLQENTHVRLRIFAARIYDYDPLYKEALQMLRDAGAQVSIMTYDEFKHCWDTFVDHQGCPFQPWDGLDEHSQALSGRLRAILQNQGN

The entries are a selection whose mix differs from that of the whole data set. Active and inactive are the calls of the source.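 Rule for the calls: active = at least 40% inhibition at 20 µM here, with at most 30% in a related deaminase screen; inactive = the rest.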

This assay has as its target DNA dC->dU-editing enzyme APOBEC-3A (Homo sapiens) (UniProt P31941). Kind of assay: APOBEC3A ssDNA deaminase inhibitors, primary screen, selectivity assay for APOBEC3G inhibitor project, biochemical, FAM/TAMRA oligo cleavage fluorescence (AID 493011).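 Note: plate controls were A3A with DMSO for no effect and wells lacking A3A enzyme for full effect.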 The conditions noted are these: recombinant A3A, FAM/TAMRA ssDNA deamination fluorescence; at 20 µM; stronger effect = higher value.
Turning to `ClCCSc1nnc(-c2cccnc2)o1`, the inhibition is inactive: 3.8%.

Regarding `Cc1ccc2nc3c(c(C)c2c1)CC(C(Cl)Cl)S3` (stereo not given), the inhibition is inactive: -0.845%. As for `Cc1ccc(OP(=O)(Nc2ccc([N+](=O)[O-])cn2)Oc2ccc(C)cc2)cc1`, the figure is inactive: 2.15%; as for `O=[As](O)(c1ccc(O)cc1)c1ccccc1O`, inactive: -7.4%; as for `C[As](=O)(O)c1cccc(C(=O)O)c1`, inactive: 0.152%. Under `COc1cc(C(=O)NCC2(N3CCOCC3)CCCCC2)ccc1OCC(C)C` stands inactive: 1.04%; under `COc1ccc(N/C(=N/P(=O)(N2CCOCC2)N2CCOCC2)N2CCOCC2)cc1`, inactive: 3.27%. As for `COc1ccc2nc(NP(=O)(c3ccccc3)c3ccccc3)sc2c1`, the figure is inactive: -0.314%; as for `COc1cc(I)ccc1[As](=O)(O)O`, inactive: 1.81%; as for `O=C(OC1CN2CCC1CC2)C12CC3CC(CC(C3)C1)C2` (stereo not given), inactive: 1.09%.

`Cc1cc(=O)[nH]c(N[N+](=O)[O-])n1`: the inhibition was inactive: -1.53%. Under `Cc1c2c(nc3ccccc13)SC(C(Cl)Cl)C2` (stereo not given) stands inactive: -3.34%; under `CC(C)CC(=O)NC(Sc1ccc(Cl)cc1)C(Cl)(Cl)Cl` (stereo not given), inactive: -2.81%. As for `Nc1cc(N)c2nonc2c1[N+](=O)[O-]`, the figure is inactive: 6.13%; as for `Oc1ccccc1CNc1ccccn1`, inactive: -3.53%; as for `Cc1c2non([O-])c-2c(C)[n+](=O)[n+]1[O-]`, inactive: -0.767%.

In the case of `O=C(NC(Sc1ccncn1)C(Cl)(Cl)Cl)c1ccccc1` (stereo not given), the inhibition is inactive: 2.33%. Under `COc1ccccc1OP(=O)(Nc1ccc(C)cn1)Oc1ccccc1OC` stands inactive: 2.21%; under `Cc1ccc(OP(=O)(Nc2nccs2)Oc2ccc(C)cc2)cc1`, inactive: -4.46%; under `Clc1ccc(Cl)c(NC2=NCC(CBr)S2)c1` (stereo not given), inactive: -2.31%.

Take `CN1CCCC(OC(=O)C(c2ccccc2)c2ccccc2)C1` (stereo not given): the inhibition is inactive: -2.37%. As for `NC(=O)c1cc([N+](=O)[O-])cc([N+](=O)[O-])c1N`, the figure is inactive: -2.56%; as for `CN(C(=O)Cc1ccc(Cl)c(Cl)c1)[C@H]1CCCC[C@H]1N1CCCC1`, inactive: 0.664%. Under `Cc1ccc(N/C(=N/P(=O)(N2CCOCC2)N2CCOCC2)N2CCOCC2)cc1` stands inactive: -1.64%; under `CCN(N=Nc1nonc1N)c1nonc1N`, inactive: 0.074%; under `O=[N+]([O-])c1cc([N+](=O)[O-])c(CCN2CCOCC2)c([N+](=O)[O-])c1`, inactive: 2.21%.

For the compound `CCOP(=O)(Nc1ccccc1)OCC`, the inhibition is inactive: 1.75%. As for `Cc1cc(SC(NC(=O)c2ccc(F)cc2)C(Cl)(Cl)Cl)ncn1` (stereo not given), the figure is inactive: -1.92%. Under `Cc1ccc(NP(=O)(Oc2ccccc2F)Oc2ccccc2F)nc1` stands inactive: -1.1%; under `CN(C(=O)Cc1ccc(Cl)c(Cl)c1)[C@H]1CCCC[C@@H]1N1CCCC1`, inactive: -2.1%. For the compound `O=C(O)c1ccccc1[As](=O)(O)O`, the inhibition was inactive: -2.57%. Turning to `CC(=O)Nc1ccc([As](=O)(O)O)cc1`, the inhibition is inactive: 1.55%. Take `O=P(Nc1nc2ccc(Cl)cc2s1)(c1ccccc1)c1ccccc1`: the inhibition is inactive: -4.57%. Under `O=[N+]([O-])c1cccc(NC2=NCC(CBr)S2)c1` (stereo not given) stands inactive: -3.5%; under `CC(C)(C)C(=O)NC(Sc1ccncn1)C(Cl)(Cl)Cl` (stereo not given), inactive: -3.04%. Under `O=[N+]([O-])c1ncn(CCn2ncnc2[N+](=O)[O-])n1` stands inactive: -0.796%; under `O=C(Nc1cc([As](=O)(O)O)ccc1O)c1ccccc1`, inactive: -1.79%. As for `CC(C)=N/N=C(\N)N[N+](=O)[O-]`, the figure is inactive: -0.508%; as for `CN(C)C(=O)OCCc1n(C)cc[n+]1C`, inactive: -4.24%; as for `CC1CCN(C(=O)Oc2c(Cl)cc(Cl)c3cccnc23)CC1`, inactive: 1.19%. Take `Nc1ccc([As](=O)(O)c2ccc(N)cc2)cc1`: the inhibition was inactive: 3.01%. With `C[N+]1=C2C=CC=CC=C2SC12C([N+](=O)[O-])=CC([N+](=O)[O-])=C[C-]2[N+](=O)[O-]` (stereo not given), the inhibition was inactive: 65.4%. Under `CCN(/C(=N/P(=O)(N1CCOCC1)N1CCOCC1)N1CCOCC1)c1ccc(OC)cc1` stands inactive: 0.341%.

As for `O=[N+]([O-])c1cccc2n[nH]nc12`, the inhibition was inactive: -2.78%. As for `CC(=O)N1C2C3N(C(C)=O)C1C1N(C(C)=O)C(C(N1C(C)=O)N3C(C)=O)N2C(C)=O`, the figure is inactive: -2.69%; as for `Cc1ccc(NP(=O)(Oc2ccccc2)Oc2ccccc2)nc1`, inactive: -6.23%. Turning to `CCc1nc2c(n1)c1c(non1O)c1c2no[n+]1[O-]`, the inhibition is inactive: -5.16%. With `O=[N+]([O-])c1cc([N+](=O)[O-])c(CCNc2ccccc2)c([N+](=O)[O-])c1`, the inhibition was inactive: 4.38%. Under `COc1ccc(C2=NCC(CBr)S2)cc1` (stereo not given) stands inactive: 2.3%; under `c1nnnn1CCn1cnnn1`, inactive: 6.11%; under `CC(C)C(=O)NC(Sc1ccccc1)C(Cl)(Cl)Cl` (stereo not given), inactive: -0.492%. Under `O=P(Nc1nccs1)(c1ccccc1)c1ccccc1` stands inactive: 4.22%. As for `C(Cc1nn[nH]n1)Cc1nn[nH]n1`, the figure is inactive: 1.31%; as for `O=C(OC1CN2CCC1CC2)c1cccc(Cl)c1` (stereo not given), inactive: 0.475%. With `O=[N+]([O-])c1ncn(CCn2cnc([N+](=O)[O-])n2)n1`, the inhibition was inactive: 4.2%. Under `O=P(Nc1nc2ccccc2s1)(c1ccccc1)c1ccccc1` stands inactive: 2.52%; under `C[C@H]1OP(=O)(Oc2ccccc2)[C@H](O)[C@H](O)[C@H]1N=[N+]=[N-]` (stereo not given in full), inactive: 1.64%. As for `O=P(Nc1ccccn1)(c1ccc(Br)cc1)c1ccc(Br)cc1`, the figure is inactive: 0.363%. Under `CN(C)C1(CNC(=O)c2ccc(Cl)c(S(N)(=O)=O)c2)CCCCC1` stands inactive: -1.69%.

On to `Cc1ccccc1OP(=O)(Nc1ccccn1)Oc1ccccc1C`, for which the inhibition is inactive: 0.568%. Under `CC(NC(=O)COC(=O)C(O)(c1ccccc1)c1ccccc1)c1ccccc1` (stereo not given) stands inactive: 6.05%; under `CN(C)C(=O)Oc1noc2ccccc12`, inactive: 5.62%. Under `COC(=O)c1cc2c(s1)N=C(c1ccccc1)N(C)P2(=O)N1CCOCC1` (stereo not given) stands inactive: -2.81%; under `CC(=O)NC(SC(=S)N(CC(C)C)CC(C)C)C(Cl)(Cl)Cl` (stereo not given), inactive: -6.15%; under `O=C(OC1CN2CCC1CC2)c1ccccc1` (stereo not given), inactive: -4.93%. Under `CCC(=O)N1C2C3N(C(=O)CC)C1C1N(C(=O)CC)C(C(N1C(=O)CC)N3C(=O)CC)N2C(=O)CC` stands inactive: 5.6%; under `CCNC(=S)/N=C(\N)N[N+](=O)[O-]`, inactive: -5.4%. Regarding `O=C(NC1CCS(=O)(=O)C1)NP(=S)(Oc1ccccc1)Oc1ccccc1` (stereo not given), the inhibition is inactive: 2.43%. As for `c1ccc(-c2nn[nH]n2)c(-c2nn[nH]n2)c1`, the figure is inactive: -1.74%. For the compound `Cc1ccc(NP(=O)(Oc2cccc(C)c2)Oc2cccc(C)c2)nc1`, the inhibition was inactive: -3.94%. As for `CCOC(=O)NC(Sc1ccccc1)C(Cl)(Cl)Cl` (stereo not given), the figure is inactive: -0.655%. Consider `CC(=O)Nc1ccc([As](=O)(O)O)c(O)c1`, for which the inhibition is inactive: -5.3%. As for `CC(=O)Nc1ccc(Oc2c([N+](=O)[O-])cc([N+](=O)[O-])cc2[N+](=O)[O-])cc1`, the figure is inactive: -1.14%; as for `CC(=O)c1ccc(N2CC2c2ccncc2)cc1` (stereo not given), inactive: 0.084%. As for `Cc1ccccc1CN(C)C(=O)COC(=O)C(O)(c1ccccc1)c1ccccc1`, the figure is inactive: -0.979%; as for `C[C@@H]1C=CCP(=O)(Oc2ccccc2)O1` (stereo not given in full), inactive: -1.27%. As for `C[C@H]1OP(=O)(Oc2ccccc2)C[C@@H]2O[C@@H]21` (stereo not given in full), the figure is inactive: -1.26%; as for `CC(C)(C)C(=O)NC(Sc1ccccc1)C(Cl)(Cl)Cl` (stereo not given), inactive: 2.96%. Consider `O=P1(Nc2nc3ccc(Cl)cc3s2)COc2ccccc2O1` (stereo not given), for which the inhibition was inactive: -1.16%.

Regarding `CCOc1ccc(C2=NCC(CBr)S2)cc1` (stereo not given), the inhibition is inactive: -0.862%.
